Measurements from patent US9340500B2, “Aromatic heterocyclic derivative having TRPV4-inhibiting activity” (SHIONOGI & CO., LTD., priority 2011, dated 2016).

Protein sequences, listed by entry. Tags and fused reporters are not part of them.
UniProt Q9HBA0, whole entry: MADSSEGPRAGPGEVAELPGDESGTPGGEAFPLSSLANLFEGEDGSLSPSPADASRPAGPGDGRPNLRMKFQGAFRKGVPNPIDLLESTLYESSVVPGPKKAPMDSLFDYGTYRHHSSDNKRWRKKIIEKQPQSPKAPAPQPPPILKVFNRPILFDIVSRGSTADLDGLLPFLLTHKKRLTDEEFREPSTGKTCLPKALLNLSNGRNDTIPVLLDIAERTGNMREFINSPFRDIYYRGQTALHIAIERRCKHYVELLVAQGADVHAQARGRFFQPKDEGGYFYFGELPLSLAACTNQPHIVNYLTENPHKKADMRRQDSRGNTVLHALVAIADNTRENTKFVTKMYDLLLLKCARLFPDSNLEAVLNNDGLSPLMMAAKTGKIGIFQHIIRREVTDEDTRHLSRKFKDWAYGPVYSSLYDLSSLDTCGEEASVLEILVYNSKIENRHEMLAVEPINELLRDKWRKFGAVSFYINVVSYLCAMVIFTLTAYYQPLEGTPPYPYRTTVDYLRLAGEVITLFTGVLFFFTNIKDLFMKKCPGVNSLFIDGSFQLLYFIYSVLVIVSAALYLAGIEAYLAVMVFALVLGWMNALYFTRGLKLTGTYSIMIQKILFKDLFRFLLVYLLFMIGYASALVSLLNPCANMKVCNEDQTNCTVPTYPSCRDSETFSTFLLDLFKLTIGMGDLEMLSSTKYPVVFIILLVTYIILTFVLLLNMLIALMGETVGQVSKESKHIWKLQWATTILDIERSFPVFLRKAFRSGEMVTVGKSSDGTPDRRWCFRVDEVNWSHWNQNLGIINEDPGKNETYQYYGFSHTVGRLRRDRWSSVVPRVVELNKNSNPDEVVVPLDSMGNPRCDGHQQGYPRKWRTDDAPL

Biological target: human TRPV4 (Homo sapiens (Human), UniProt Q9HBA0)
Assay: Test Example 1: measurement of TRPV4 inhibitory activity (Fluo 4-AM, FLIPR TETRA, 4α-PDD 1 μmol/L)
Conditions: hTRPV4/CHO cells
Description: For each compound, TRPV4 inhibitory activity was measured using cells.
(1) The TRPV4 inhibitory activity was measured using CHO-K1 cells stably expressing human TRPV4 (hTRPV4/CHO cells).
(2) In the day before the experimental day, frozen cell were thawed and washed with the culture medium (MEM-α, 10% FBS, 2 mmol/L GlutaMax, 50 unit Penicillin, 50 μg/mL Streptomycin). Then cells were suspended in the culture medium.
(3) The 384-well plates which hTRPV4/CHO cells were seeded at densities of 4000 cells/well in the culture medium and cultured in a CO2 incubator in the presence of 5% CO2 at 37° C. for overnight was used as assay plates. […]
(7) Diluted compound solution was dispensed to each well in the compound plate, and mixed with built-in Pipette and Mixer of the Fluorescence analysis system FLIPR TETRA (Molecular devices). […]
(9) The fluorescent intensity was measured with FLIPR TETRA system for 10 min from the point of time addition the compound solution, at Ex 470-495 nm, Em 515-575 nm wavelength.
TRPV4 inhibitory activity (IC50 value and Ki value) of a compound was evaluated according to the following procedure.
(10) In the presence of the compound, the difference between maximal and minimal of fluorescent intensity value for 5 min from just before addition of 4α-PDD solution was calculated, and it was referred as Max-Min value. […]

In the case of `FC(F)(F)c1cccc(Nc2ccc3c(c2)cc(-c2ccccc2)n3CCCN2CCOCC2)c1`, the IC50 (read-out: Test 1 IC50, 4α-PDD 1 μmol/L) is reported as 8 µM and the Ki (read-out: Test 1 Ki, calculated from IC50 and 4α-PDD EC50) is reported as 3.9 µM.
